Assays:
[1] = target: thrombin receptor (PAR-1) (Homo sapiens, UniProt P25116); assay: In vitro thrombin receptor binding assay (CHRF membranes); settings: read-out: Bndg IC50 (Thrombin receptor binding), tritiated 721-40 radioligand
[2] = system: gel-filtered platelets; assay: In vitro inhibition of thrombin-induced gel-filtered platelet aggregation; settings: read-out: Thrmb IC50 (Thrombin-induced aggregation of gel-filtered platelets); human gel-filtered platelets; agonist thrombin 50 μL of 1 unit/mL
Description: In Vitro Inhibition of Thrombin-Induced Gel-Filtered Platelet Aggregation Assay
The percentage of platelet aggregation is calculated as an increase in light transmission of compound-treated platelet concentrate vs. control-treated platelet concentrate. Human blood is obtained from drug free, normal donors in tubes containing 0.13M sodium citrate. Platelet rich plasma (PRP) is collected by centrifugation of whole blood at 200×g for 10 min at 25° C. The PRP (5 mL) is gel filtered through Sepharose 2B (bed volume 50 mL), and the platelet count is adjusted to 2×10^7 platelets per sample. The following constituents are added to a siliconized cuvette: concentrated platelet filtrate and Tyrode's buffer (0.14M NaCl, 0.0027M KCl, 0.012M NaHCO3, 0.76 mM Na2HPO4, 0.0055M glucose, 2 mg/mL BSA and 5.0 mM HEPES @ pH 7.4) in an amount equal to 350 μL 50 μL of 20 mM calcium and 50 μL of the test compound. Aggregation is monitored in a BIODATA aggregometer for the 3 min following the addition of agonist (thrombin 50 μL of 1 unit/mL).
Table 7 contains IC50 values (μM) of the compounds in a thrombin receptor binding assay, and IC50 values (μM) against platelet aggregation stimulated by thrombin.

Chains of the proteins cited; added tags and fusions are not shown. Residues count along the entry.
UniProt P25116, 22-425 limits assumed: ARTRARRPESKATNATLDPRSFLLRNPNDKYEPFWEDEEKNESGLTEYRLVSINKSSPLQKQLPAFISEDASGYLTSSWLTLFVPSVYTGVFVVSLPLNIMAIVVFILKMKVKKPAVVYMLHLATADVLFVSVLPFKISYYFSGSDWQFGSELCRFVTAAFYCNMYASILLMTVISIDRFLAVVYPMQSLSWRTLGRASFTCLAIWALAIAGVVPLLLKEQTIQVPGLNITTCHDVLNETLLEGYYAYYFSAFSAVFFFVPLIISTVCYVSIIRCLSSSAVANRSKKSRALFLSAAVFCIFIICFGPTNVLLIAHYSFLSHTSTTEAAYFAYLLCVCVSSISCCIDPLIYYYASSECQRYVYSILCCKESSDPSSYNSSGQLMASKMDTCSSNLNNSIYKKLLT

Structure (SMILES) | IC50 [1] | IC50 [2]
Cc1ccccc1Cn1cc(CN2CCCC2)c2cccc(NC(=O)N[C@@H](Cc3ccc(F)c(F)c3)C(=O)N[C@@H](CCN)C(=O)NCCN3CCCC3)c21 | 8.8 µM | 12.8 µM
NCC[C@H](NC(=O)[C@H](Cc1ccc(F)c(F)c1)NC(=O)Nc1cccc2c(CN3CCCC3)cn(Cc3c(Cl)cccc3Cl)c12)C(=O)NCCN1CCCC1 | 21.6 µM | 23.3 µM
